Experimental data taken from PubChem BioAssay AID651821 (The Scripps Research Institute Molecular Screening Center, 2012).
The list shows a part of the results, in another mix than the full data. Activity calls are given as the source filed them.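 How the source made its calls: active means inhibition above the plate cutoff, the mean of all test compounds on that plate plus 3 SD (cut at about 35% in these data); inactive means the rest.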

Assay: binders of r(CAG) RNA repeats, primary screen, biochemical, fluorescence (AID 651821);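 further: 0% = DMSO alone and 100% = 100 µM mitoxantrone as full dye displacement; higher means more dye released from RNA so lower well fluorescence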
Conditions: r(CAG) RNA repeat, TO-PRO-1 dye displacement fluorescence; at 3 µM; active compounds read high

Structure (SMILES)	inhibition
O=c1[nH]c2ccccc2n1C1CCN(C(c2cccc3ccccc23)c2nnnn2C2CCCC2)CC1 (stereo not given)	inactive: 9.43%
COc1cc(C(=O)NCC2(N(C)C)CCCCC2)ccc1OC(F)F	inactive: -1.33%
CCOC(=O)N1CCC(Nc2cccc(C)c2)CC1	inactive: -7.6%
O=c1[nH]c2ccccc2n1C1CCN(C(c2ccccc2)c2nnnn2C2CCCCC2)CC1 (stereo not given)	inactive: 6.62%
O=C(NCC1(N2CCCCC2)CCCCC1)c1ccc(F)cc1	inactive: -1.48%
O=P1(N(CCCl)CCCl)SCCCS1	inactive: 0.19%
CCCCn1nnnc1C(c1cc2ccccc2o1)N1CCC(n2c(=O)[nH]c3ccccc32)CC1 (stereo not given)	inactive: 6.92%
CCCCOc1ccc(C(=O)NCC2(N3CCOCC3)CCCCC2)cc1	inactive: -11.2%
COc1ccc(NC2CCN(CCc3ccccc3)CC2)c(OC)c1	inactive: 16.1%
CCOC(=O)N1CCC(Nc2ccc(F)cc2)CC1	inactive: 2.26%
CCOc1ccc(C)cc1CN(CCCl)CCCl	inactive: -3.7%
CC(C)(C)n1nnnc1C(c1ccccc1)N1CCC(n2c(=O)[nH]c3ccccc32)CC1 (stereo not given)	inactive: 1.68%
O=C1CCN(Cc2ccccc2)CC1	inactive: -4.71%
CCOC(=O)N1CCC(Nc2ccc(OC)cc2)CC1	inactive: -3.14%
CCCCn1nnnc1C(c1ccc(OC)cc1)N1CCC(n2c(=O)[nH]c3ccccc32)CC1 (stereo not given)	inactive: 4%
O=C(OC1CN2CCC1CC2)C1c2ccccc2Oc2ccccc21 (stereo not given)	inactive: -0.94%
O=c1[nH]c2ccccc2n1C1CCN(C(c2cc3ccccc3o2)c2nnnn2C2CCCCC2)CC1 (stereo not given)	inactive: 8.49%
N#CC1(Nc2ccccc2)CCN(Cc2ccccc2)CC1	inactive: 1.37%
O=C(NCC1(N2CCCCC2)CCCCC1)c1ccc(Cl)s1	inactive: 0.78%
COc1ccc(Cl)cc1C(=O)NCC1(N2CCOCC2)CCCCC1	inactive: -2.24%
O=C(NCC1(N2CCOCC2)CCCCC1)c1cc2ccccc2o1	inactive: 1.52%
O=c1[nH]c2ccccc2n1C1CCN(C(c2ccccc2OC(F)(F)F)c2nnnn2C2CCCCC2)CC1 (stereo not given)	inactive: 2.3%
O=C(NCC1(N2CCCCC2)CCCCC1)c1ccc(Cl)nc1	inactive: -3.15%
Cc1cc(C)cc(N(C(=O)c2ccccc2)C2CCN(C(=O)OC(C)(C)C)CC2)c1	inactive: -12.6%
CSc1ccccc1C(=O)NCC1(N2CCCCC2)CCCCC1	inactive: 1.68%
Cc1cccc(NC2(C#N)CCN(Cc3ccccc3)CC2)c1	inactive: 2.14%
O=C(NCC1(N2CCCCC2)CCCCC1)c1ccc(=O)[nH]c1	inactive: -2.12%
CCCCn1nnnc1C(c1cccs1)N1CCC(n2c(=O)[nH]c3ccccc32)CC1 (stereo not given)	inactive: 1.03%

Structure (SMILES)	inhibition
O=C(NCC1(N2CCCCC2)CCCCC1)c1cccs1	inactive: 1.3%
CCCCn1nnnc1C(CC)N1CCC(n2c(=O)[nH]c3ccccc32)CC1 (stereo not given)	inactive: 3.03%
COc1ccc(C(=O)NCC2(N3CCCCC3)CCCCC2)cc1	inactive: 1.63%
CCC(c1nnnn1C1CCCC1)N1CCC(n2c(=O)[nH]c3ccccc32)CC1 (stereo not given)	inactive: 0.13%
CC(C)(C)OC(=O)N1CCC(N(C(=O)c2ccccc2)c2ccc(F)cc2)CC1	inactive: -6.92%
COc1ccc(C(=O)NCC2(N3CCCCC3)CCCCC2)c(OC)c1OC	inactive: -4.72%
Cc1ccc(C(=O)NCC2(N(C)C)CCCCC2)o1	inactive: 2.93%
CCCOc1ccc(C(=O)NCC2(N(C)C)CCCCC2)cc1OC	inactive: -4.57%
COc1ccc(C(c2nnnn2C2CCCC2)N2CCC(n3c(=O)[nH]c4ccccc43)CC2)cc1 (stereo not given)	inactive: 3.96%
O=C(NCC1(N2CCCCC2)CCCCC1)c1cncc(Br)c1	inactive: 4.66%
CN1CCC(Nc2cccc(F)c2)CC1	inactive: -0.06%
CCCCn1nnnc1C(c1ccnc2ccccc12)N1CCC(n2c(=O)[nH]c3ccccc32)CC1 (stereo not given)	inactive: 5.08%
COc1cc(OC)c(C(=O)NCC2(N(C)C)CCCCC2)cc1OC	inactive: -4.09%
O=C(NCC1(N2CCOCC2)CCCCC1)c1cc(F)c(F)cc1Cl	inactive: -4.97%
CCC(c1nnnn1C(C)(C)C)N1CCC(n2c(=O)[nH]c3ccccc32)CC1 (stereo not given)	inactive: -0.39%
COC(=O)C1(Nc2ccccc2)CCN(Cc2ccccc2)CC1	inactive: 1.16%
COc1ccc(CN(CCCl)CCCl)cc1Cl	inactive: 2.64%
CN(C)c1cccc(C(=O)NCC2(N3CCCCC3)CCCCC2)c1	inactive: -3.25%
CC(C)c1ccc(NC2CCN(C(=O)OC(C)(C)C)CC2)cc1	inactive: -10.6%
CCCCn1nnnc1C(c1cccc2ccccc12)N1CCC(n2c(=O)[nH]c3ccccc32)CC1 (stereo not given)	inactive: 9.31%
CN1CCN(CCOC(=O)C(O)(c2ccccc2)c2ccccc2)CC1	inactive: -0.59%
CC(C)c1ccc(C(=O)NCC2(N3CCOCC3)CCCCC2)cc1	inactive: -10.7%
COc1ccc(NC2CCN(C(=O)OC(C)(C)C)CC2)cc1	inactive: -5.66%
COc1cc(C(=O)NCC2(N3CCCCC3)CCCCC2)ccc1OC(F)F	inactive: -1.22%
O=C(NCC1(N2CCOCC2)CCCCC1)c1cc(=O)[nH]c2ccccc12	inactive: -2.77%
O=C(NCC1(N2CCCCC2)CCCCC1)c1cccc(C(F)(F)F)c1	inactive: -1.14%
CSc1ccc(C(=O)NCC2(N3CCOCC3)CCCCC2)cc1	inactive: -1.75%
